# According to patent publication US20220380306A1, “ASTAXANTHIN ESTERS AND METHODS OF USE THEREOF” (CARDAX,INC., priority 2019, published 2022):
# Experiment: Hydrolysis of ADMG compared to ADSa in solution or under basic conditions (NaHCO3 / Na2CO3)
# Assay type: physicochemical
# Settings: 16 hours
# Protocol: Hydrolysis of ADMG compared to ADSa in solution or under basic conditions: To a 10 mL brown bottle was added the ADMG 2HCl (5 mg) or ADSa 2HCl (5 mg) and methanol (1 mL), followed by adding saturated aq NaHCO3 or Na2CO3 (0.5 mL) at rt. The mixture was stirred at room temperature or 50° C. The reaction was monitored by HPLC and LCMS after 16 hours. The results are shown in the below table, where A indicates starting diester (ADSa or ADMG), B indicates the hydrolyzed monoester, and C indicates free astaxanthin. “Byproduct” indicates a material that was formed other than the diester, monoester, or free astaxanthin.
# [1] = methanol + saturated aq NaHCO3, 50° C.
# [2] = methanol + saturated aq NaHCO3, rt
substance,measurement,setting,value
"Astaxanthin Sarcosine Diester [ADSa, reference compound]",B (hydrolyzed monoester),[1],2% B
same,C (free astaxanthin),[1],90% C
same,A (starting diester),[2],7% A
same,B (hydrolyzed monoester),[2],32% B
same,C (free astaxanthin),[2],51% C
